Antibody variant affinities, Ab-91 heavy chain, assay 2

Values reported by Engelhart et al. 2022, doi:10.1038/s41597-022-01779-4 (FLAb copy).

Binding partner: SARS-CoV-2 spike HR2 peptide, sequence PDVDLGDISGINAS.

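The parent was found by panning a naive human phage display library on the peptide. In library AAYL51, one, two or three CDR residues were substituted; doubles and triples were drawn at random. AlphaSeq pools MATa yeast showing the antibodies with MATalpha yeast showing the peptide. After mating in shaken culture at 30 °C for 16 h, diploids were selected and their barcode pairs sequenced. Scores were corrected for input abundance and mapped to Kd with protein pairs of known affinity run in the same pool. Each pool was mated in three replicate cultures.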

Ab-91 is the parent antibody, in scFv form: VL, then three GGGGS repeats, then VH. The light chain is unchanged in all variants.
VL: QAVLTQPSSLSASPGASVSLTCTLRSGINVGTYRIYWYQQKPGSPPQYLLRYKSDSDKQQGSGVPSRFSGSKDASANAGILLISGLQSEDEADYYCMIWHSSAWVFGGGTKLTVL
VH: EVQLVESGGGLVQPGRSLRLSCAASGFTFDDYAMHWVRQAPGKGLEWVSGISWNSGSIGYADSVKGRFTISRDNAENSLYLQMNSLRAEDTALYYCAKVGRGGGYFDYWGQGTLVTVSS

Substitutions are numbered in sequence along the VH above, starting at 1 (not Kabat). Affinities are written as log10 Kd with Kd in nM; a lower number is a better binder. A mean of the replicates is given; it leaves out those without a signal. An entry "ND" has no value in the source: the pair was not observed among the diploids in that replicate. This suggests poor binding but is not conclusive. Empty control strains, which show no peptide, gave a signal in 21% of pairings with library AAYL51; the median was 4.54 and 95% of these signals were weaker than 3.26. No background was subtracted. For each scFv, signals with the empty controls are counted beside the result.

Variant D30T+A33T+G100Y showed 4.27, ND, ND (controls 3 of 9).
Variant G26H+D30Q+V64C showed ND, 5.62, 5.50 (mean 5.56; controls 5 of 9).
Variant M34G showed 5.09, 4.00, 5.36 (mean 4.82; controls 6 of 9).
Variant M34I+W53G+Y108D showed 2.47, 2.45, 1.78 (mean 2.23; controls 0 of 9).
Variant G50P+K65G+Y108F showed 4.61, 5.09, 5.65 (mean 5.12; controls 4 of 9).
Variant Y32M+G100S+F106S showed ND, 5.07, 3.65 (mean 4.36; controls 1 of 9).
Variant G100E+G103S+F106W showed 2.14, 2.51, 1.84 (mean 2.16; controls 1 of 9).
Variant F27P+G102E showed ND, 4.11, 3.68 (mean 3.89; controls 1 of 9).
Variant W53A+G59S+V99T showed ND, ND, ND (controls 1 of 9).
Variant G56A+S57C+V99R showed ND, ND, ND (controls 1 of 9).
Variant H35W+I51K+G56M showed 4.49, 5.59, ND (mean 5.04; controls 3 of 9).
Variant D31I+S55R+R101Y showed ND, ND, ND (controls 0 of 9).
Variant A61L+V99E+G103T showed 4.37, 4.91, 4.92 (mean 4.73; controls 8 of 9).
Variant W53Q+V64Q+D107C showed 2.76, ND, ND (controls 0 of 9).
Variant F27I+S57H+F106I showed 4.57, 6.17, 3.37 (mean 4.70; controls 6 of 9).
Variant A33C+S52N+V64C showed 4.60, ND, ND (controls 4 of 9).
Variant M34S+I58W+G104L showed ND, ND, 4.84 (controls 3 of 9).
Variant I58Q+V99Q+R101Y showed ND, ND, ND (controls 0 of 9).
Variant I51C+K65I+Y105I showed ND, 4.77, ND (controls 2 of 9).
Variant F27E+V99E+G104S showed ND, ND, ND (controls 0 of 9).
Variant D30F+Y60A+A61T showed ND, ND, ND (controls 1 of 9).
Variant G56L+I58V+D107G showed 0.79, 0.82, 0.33 (mean 0.65; controls 1 of 9).
Variant Y32F+S55M+V64F showed 3.37, 3.23, 3.13 (mean 3.25; controls 0 of 9).
Variant G50N+F106H+D107E showed ND, ND, ND (controls 0 of 9).
Variant F27V+N54E showed 3.76, ND, ND (controls 2 of 9).
Variant G26S+F27N+G103C showed 2.15, 1.95, 1.68 (mean 1.93; controls 2 of 9).
Variant T28A+A33H+V64A showed ND, ND, ND (controls 0 of 9).
Variant K65E+V99F+G103E showed ND, ND, ND (controls 2 of 9).
Variant D30R+M34C+G102Q showed ND, ND, ND (controls 0 of 9).
Variant I51G+G59L+Y105F showed ND, ND, ND (controls 2 of 9).
Variant Y32I+N54F showed 5.38, 5.51, 5.37 (mean 5.42; controls 6 of 9).
Variant A33T+I58N+A61Y showed ND, ND, ND (controls 0 of 9).
Variant Y32K+S52F+G56V showed 3.09, ND, ND (controls 0 of 9).
Variant G26C+Y60S+V64T showed ND, ND, ND (controls 2 of 9).
Variant K65E+V99A+F106G showed 5.29, ND, 4.19 (mean 4.74; controls 1 of 9).
Variant D62P+R101Q+G102H showed 1.55, 1.46, 1.04 (mean 1.35; controls 0 of 9).
Variant G26K+V99I+R101C showed ND, ND, 4.25 (controls 0 of 9).
Variant A61I+G100I+G103V showed ND, ND, ND (controls 0 of 9).
Variant G50V+V64I+G102V showed 4.82, ND, ND (controls 4 of 9).
Variant S57C+A61G+G100S showed ND, ND, ND (controls 0 of 9).
Variant I51V+W53C+G104L showed 5.78, 5.36, 5.96 (mean 5.70; controls 6 of 9).
Variant M34E+G59P+G103E showed ND, ND, ND (controls 1 of 9).
Variant S52T+S57L+Y108R showed ND, 5.15, ND (controls 1 of 9).
Variant G50C+K65F+G102I showed ND, ND, ND (controls 3 of 9).

The last 7 entries again:

The variant A61I+G100I+G103V showed ND, ND, ND (controls 0 of 9).
The variant G50V+V64I+G102V showed 4.82, ND, ND (controls 4 of 9).
The variant S57C+A61G+G100S showed ND, ND, ND (controls 0 of 9).
The variant I51V+W53C+G104L showed 5.78, 5.36, 5.96 (mean 5.70; controls 6 of 9).
The variant M34E+G59P+G103E showed ND, ND, ND (controls 1 of 9).
The variant S52T+S57L+Y108R showed ND, 5.15, ND (controls 1 of 9).
The variant G50C+K65F+G102I showed ND, ND, ND (controls 3 of 9).